## Binding of CDR-mutated scFvs to a peptide of the spike HR2 region

Reference: Li et al. 2023, doi:10.1038/s41467-023-39022-2. File: FLAb, binding data.

The target is the same throughout: PDVDLGDISGINAS, from the HR2 region of SARS-CoV-2 spike.

Parent scFv Ab-14: VH joined to VL by the linker GGGGSGGGGSGGGGS. Changes lie in the light chain CDRs alone.
VH: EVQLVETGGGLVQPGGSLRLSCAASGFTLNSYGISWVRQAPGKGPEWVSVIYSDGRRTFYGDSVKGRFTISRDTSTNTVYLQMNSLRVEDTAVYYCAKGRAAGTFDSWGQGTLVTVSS
VL: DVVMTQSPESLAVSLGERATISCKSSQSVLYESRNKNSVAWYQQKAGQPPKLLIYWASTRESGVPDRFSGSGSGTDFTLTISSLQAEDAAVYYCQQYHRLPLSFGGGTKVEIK

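Phage display of a naive human antibody library on the peptide gave the parent. Designed CDR sequences, proposed from the first random library and measured here. Their group label is 14L_En_Gibbs (En: ensemble of fine-tuned language models; Gibbs: Gibbs sampling). AlphaSeq pools MATa yeast showing the antibodies with MATalpha yeast showing the peptide. Pairs that bind mate more often; barcode pairs of the diploids are counted by sequencing. A regression on co-assayed BCL2-family reference pairs converts the normalised counts of each replicate to an apparent Kd. Mating was done six times.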

The parent's light chain CDRs are KSSQSVLYESRNKNSVA, WASTRES, QQYHRLPLS; each variant's own CDRs replace them letter for letter. The read-out is the apparent dissociation constant on a log10 scale (nM): the lower, the stronger. A mean of the replicates is given; it leaves out those without a signal. "nd" marks a missing value. The strain was present, yet no cells mated with the target were sequenced in that replicate, which points to weak or no binding. In the paper, a design with two or fewer of six values counts as a poor binder. The range of this assay differs from that of the first round, and the authors advise against merging the two. Nonspecific signal, from three strains lacking the peptide, appeared in 4% of pairings of all light chain designs, centred on 2.64 (5% of these signals below 1.59); values are not corrected for it. For each scFv, signals with the empty controls are counted beside the result, with their mean in brackets.

CDR-L1	CDR-L2	CDR-L3	log10 Kd (nM) by replicate	mean, log10 nM	empty controls
KIDQQTSYDNGRERAIA	DVTIRDW	QQYARLPLL	1.67 1.24 2.31 1.52 nd nd	1.68	0 of 18
SLHMYTLTEKNANNSIA	EKSYRAY	QQYSHLPLV	1.11 0.77 1.83 1.72 0.88 1.60	1.32	1 of 18 (2.77)
QIFFNDFQYRIESQNIA	QASLREV	QQYARLPLV	1.02 0.85 0.75 0.81 1.49 0.89	0.97	0 of 18
QINMEMNHDLDDEQNVA	DAMTEVK	QQYNRLPLS	1.99 1.35 2.00 1.18 1.21 1.79	1.59	2 of 18 (2.58)
RIDAYPPMQGNNIDSIA	ENAITLD	QQYANLPLS	nd nd nd nd nd nd	nd	1 of 18 (0.88)
KLPMKELQMSENTNNVA	DSEQKMK	QQYSRLPLM	0.23 0.15 0.06 -0.05 0.03 0.18	0.10	0 of 18
AISFEMMSPHNHSNAVA	SESKRCS	QQYFTLPLS	nd nd 1.46 nd nd nd	1.46	0 of 18
QIFFNDFWYGIESQNIA	QGSMREV	QQYARLPLV	0.59 0.76 0.50 0.69 1.04 0.49	0.68	0 of 18
VLPDNLLMFEMQYHSIA	EGVQRME	QQYERLPLT	0.75 0.77 0.41 0.32 1.05 0.80	0.68	0 of 18
KLTHLSFVHDRQKASVA	DSERKAE	QQYNRLPLT	0.68 0.24 0.09 0.32 0.18 0.41	0.32	2 of 18 (2.91)
KLGAWMYWGTEAKYAIA	QDEMRVH	QQYDRLPLT	nd nd nd nd nd nd	nd	0 of 18
KIQWYPLEIRGTISAVA	EAATRYN	QQYMRLPLM	1.72 nd 2.65 2.28 2.64 2.04	2.27	0 of 18
MLDNCQDEYYQKNNNVA	EMNARCY	QQYGRLPLM	nd 2.68 2.59 nd 2.88 2.14	2.57	0 of 18
HMRHEFYQYDNYDKAVA	HANQRHN	QQYSRLPFS	2.27 nd nd 3.17 nd 2.98	2.81	0 of 18
KVYDPMVEWYANQSAVA	EHAEAQH	QQYDRLPLS	nd 1.63 nd nd nd nd	1.63	0 of 18
QMRLMYENSGHRMNSIA	DETMKPD	QQYVRLPLH	1.09 0.83 0.17 0.48 0.77 0.02	0.56	2 of 18 (1.77)
KLTTQVGHQMDHKNSIA	EVDMVAQ	QQYMHLPLI	1.41 1.23 0.57 1.20 0.70 0.69	0.97	3 of 18 (2.67)
HLTEQNFDGERRAYNIA	AEVKHSY	QQYHRLPLM	1.97 4.55 nd nd nd nd	3.26	0 of 18
QVFAFNEHLKDQTQAMA	NATMRDQ	QQYERLPLS	1.11 0.97 1.00 1.32 0.87 1.14	1.07	1 of 18 (4.37)
SVTRETDENGLKMNSVA	DAAEAMT	QQYHRLPLT	0.69 0.74 0.32 0.21 0.39 0.26	0.43	0 of 18
HLELEYMQMMKDHNSIA	DTESKTD	QQYFRLPIS	0.98 1.16 1.61 1.36 1.90 1.31	1.39	0 of 18
QVTNISDPYGRNRNNIA	QTSERMH	QQYQMLPLA	0.20 0.16 -0.10 0.02 0.04 0.09	0.07	1 of 18 (2.91)
VFMGQWDGVTTTNSAVA	NVDERME	QQYNRLPLM	nd 1.74 nd 2.44 2.37 2.17	2.18	0 of 18
MVTLQLRPGHEHQNPIA	EASHRAA	QQYAHLPLG	1.55 0.74 1.31 1.08 1.59 1.65	1.32	0 of 18
ALALTLHQNESNQSNIA	QVQEREV	QQYYRLPLG	nd 2.59 nd 2.51 2.65 2.83	2.65	1 of 18 (2.77)
KLFDETSSEQVNARAVA	DSLTVHE	QQYHMLPLS	2.28 1.77 1.34 1.85 1.34 1.85	1.74	0 of 18
NLGGLDVNSTYEMKAVA	DVSEVGE	QHYSRLPLS	1.20 1.22 1.59 0.91 2.70 2.25	1.65	0 of 18
RLDSVMEQLTNRAQNVA	NATTVIA	QSYMRLPLV	0.97 0.88 0.94 0.58 0.73 0.73	0.81	1 of 18 (3.24)
RLYNQGTDQIQHAQSIA	DRDEVDS	QQYAHLPLS	1.27 0.37 0.95 1.34 1.00 1.79	1.12	0 of 18
NLNVSEDQWPSSKNAIA	QTTCRVL	QQYMHLPLS	0.58 0.47 0.47 0.46 0.65 0.64	0.55	2 of 18 (3.54)
NLMSHQSELSVWKYSIA	SASIRLS	QQYFRLPLA	nd nd nd nd 3.05 nd	3.05	0 of 18
NMKVGLNFEDIQHQAIA	EVEVRES	QQYARLPLT	nd 3.27 nd nd nd 3.42	3.35	1 of 18 (2.71)
QLMVFNLQAGSTQAAIA	DASHSTD	QQYARLPLM	-0.09 0.32 0.38 0.04 0.75 0.70	0.35	0 of 18
KLNHLSFVHDREKNNVA	DLNVKCS	QQYDRLPLV	0.45 0.34 0.13 0.00 0.03 0.66	0.27	0 of 18
KLESLMGESYAEKENIA	EGEQRFS	QQYHRLPLH	1.34 1.03 0.98 1.38 1.08 1.98	1.30	1 of 18 (2.21)
KLQWYPLGIRDTGSAVA	EAATKYN	QQYMRLPLM	0.25 0.68 0.31 1.09 0.22 1.07	0.61	0 of 18
KVDISPTVQGMHKSGVA	EHDMRVG	QQYFRLPLA	nd 0.82 0.82 1.73 0.90 1.61	1.18	0 of 18
FMGGTKTMQSNEIGNIA	DMNERFA	QQYFQLPLS	0.75 0.47 0.67 0.14 0.29 0.47	0.47	0 of 18
QLEFEALGGANYDYSIA	AQDVAMP	QQYDRLPLI	nd nd 1.79 nd nd nd	1.79	2 of 18 (2.13)
NMSDSTERMASILRNIA	DSTTRAM	QQYARLPLS	0.81 0.68 0.70 0.63 0.58 0.77	0.70	1 of 18 (3.01)
QLEVFPLQAGSTYAAIA	DASHSTP	QQYARLPLM	0.82 0.51 0.96 0.95 0.69 0.99	0.82	0 of 18
QMKMSLLQGILIKDSIA	SSNLREM	QQYEHLPLI	nd 1.67 1.81 nd nd 2.43	1.97	0 of 18
KLKTMPGEIPKEGNSIA	HAELRTP	QQYHRLPLI	nd nd nd 2.68 nd 3.34	3.01	0 of 18
HFAKQLTSLYNSKQNVA	NASTVMV	QHYNRLPLS	2.01 1.69 1.54 1.63 1.94 1.98	1.80	4 of 18 (3.47)
RLTQQMAGFNRHANNIA	STAVRQW	QQYARLPFI	1.16 1.50 1.00 0.89 0.94 1.34	1.14	0 of 18
KLNDAYQGDIVNNQNIA	SADTLNH	QQYAKLPLS	0.36 0.31 0.31 0.56 0.22 0.53	0.38	1 of 18 (2.53)
HSNGNLRMGERNKNHVA	STDVRES	QQYSRLPLT	1.28 1.07 0.84 0.74 1.22 1.04	1.03	3 of 18 (3.48)
IMTGIIEEGSNNKRNIA	ENKERFQ	QQYWQLPLS	0.68 0.55 1.00 0.99 0.71 1.28	0.87	0 of 18
RLRLKELGMSYNANQVA	DSENRIK	QQYYRLPLT	2.00 2.19 1.61 1.92 2.27 2.61	2.10	1 of 18 (3.23)
TLAQGIYEPVRKSNNVA	EASHVTD	QQYERLPLE	1.51 0.71 1.08 0.67 0.77 1.21	0.99	0 of 18
KLMPSNLHYTEHLNSVA	EAEELQT	QHYARLPLM	0.36 0.98 0.49 1.11 0.46 0.58	0.66	0 of 18

Excerpt, the final 6 entries:

CDR-L1	CDR-L2	CDR-L3	log10 Kd (nM) by replicate	mean, log10 nM	empty controls
KLNDAYQGDIVNNQNIA	SADTLNH	QQYAKLPLS	0.36 0.31 0.31 0.56 0.22 0.53	0.38	1 of 18 (2.53)
HSNGNLRMGERNKNHVA	STDVRES	QQYSRLPLT	1.28 1.07 0.84 0.74 1.22 1.04	1.03	3 of 18 (3.48)
IMTGIIEEGSNNKRNIA	ENKERFQ	QQYWQLPLS	0.68 0.55 1.00 0.99 0.71 1.28	0.87	0 of 18
RLRLKELGMSYNANQVA	DSENRIK	QQYYRLPLT	2.00 2.19 1.61 1.92 2.27 2.61	2.10	1 of 18 (3.23)
TLAQGIYEPVRKSNNVA	EASHVTD	QQYERLPLE	1.51 0.71 1.08 0.67 0.77 1.21	0.99	0 of 18
KLMPSNLHYTEHLNSVA	EAEELQT	QHYARLPLM	0.36 0.98 0.49 1.11 0.46 0.58	0.66	0 of 18